Sequences of proteins named here, by UniProt entry; tags and fusion partners are left off.
UniProt P31652, whole entry: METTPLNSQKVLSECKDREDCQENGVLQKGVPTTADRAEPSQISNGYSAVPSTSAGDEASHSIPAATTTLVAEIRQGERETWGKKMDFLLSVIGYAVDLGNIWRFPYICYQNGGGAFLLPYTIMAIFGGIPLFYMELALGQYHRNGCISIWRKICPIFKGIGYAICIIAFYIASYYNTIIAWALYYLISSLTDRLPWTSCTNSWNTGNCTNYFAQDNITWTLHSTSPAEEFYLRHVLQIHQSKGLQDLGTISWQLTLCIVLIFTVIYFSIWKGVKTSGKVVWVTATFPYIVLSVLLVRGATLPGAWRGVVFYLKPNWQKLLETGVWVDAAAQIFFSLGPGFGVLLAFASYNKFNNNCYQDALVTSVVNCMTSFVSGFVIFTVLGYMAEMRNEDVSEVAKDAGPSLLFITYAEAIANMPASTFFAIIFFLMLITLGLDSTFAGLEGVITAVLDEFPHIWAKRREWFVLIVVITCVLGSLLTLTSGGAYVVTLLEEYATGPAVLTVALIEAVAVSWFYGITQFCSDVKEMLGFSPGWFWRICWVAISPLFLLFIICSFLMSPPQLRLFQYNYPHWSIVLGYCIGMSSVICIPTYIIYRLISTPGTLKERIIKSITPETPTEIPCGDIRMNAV

In patent US9873702B2, “Heterocyclic compounds as biogenic amine transport modulators” (Southern Research Institute, priority 2014, dated 2018):

Experiments:
[1] = target: T1, serotonin transporter (SERT) (Rattus norvegicus, UniProt P31652); test: Serotonin reuptake ([^3H]serotonin uptake) inhibition in rat brain synaptosomes; format: biochemical
T1 construct: Freshly removed whole brain minus cerebellum and caudate was homogenized; from tissue; host or cells: rat whole brain minus cerebellum and caudate, synaptosomes

[2] = target: norepinephrine transporter (NET) (Rattus norvegicus, UniProt Q9WTR4); test: Norepinephrine reuptake ([^3H]norepinephrine uptake) inhibition in rat brain synaptosomes; settings: read-out: NET Uptake IC50; mean ± S.D., n = 3

## COC(=O)[C@H]1[C@@H](OC(=O)c2ccccc2)C[C@@H]2CC[C@H]1N2C [cocaine, reference compound]
[1]
  IC50: 0.273 ± 0.024 µM
[2]
  IC50: 0.329 ± 0.022 µM
